In article PMC12519566, “A TOM1 variant impairs interaction with TOLLIP, autophagosome-lysosome fusion and regulation of innate immunity” (Disease Models & Mechanisms, 2025) one finds stoichiometry N data, which are given here for one substance.

The target of experiment [1] is TOLLIP (toll-interacting protein) (human) (UniProt Q9H0E2). The experiment is described as follows: cross-linking; proteins treated with the homobifunctional crosslinkers BS3 and glutaraldehyde.
The target is the same in experiment [2]. The experiment is described as follows: cross-linking; glutaraldehyde dilution series (0.01-1%), 5 min at 37°C; SDS-PAGE.

Turning to “TOLLIP (toll-interacting protein) (from UniProt Q9H0E2 1-274) (natural protein)”, the stoichiometry N in experiment [1] and in experiment [2] was 2 throughout.
